Earlier results, collected in patent US11525155B2, “Stabilisation of biological samples” (QIAGEN GmbH, priority 2013, dated 2022).

Sequences of proteins named here, by UniProt entry; tags and fusion partners are left off. Residues count along the entry.
UniProt P29466, 120-297 limits assumed: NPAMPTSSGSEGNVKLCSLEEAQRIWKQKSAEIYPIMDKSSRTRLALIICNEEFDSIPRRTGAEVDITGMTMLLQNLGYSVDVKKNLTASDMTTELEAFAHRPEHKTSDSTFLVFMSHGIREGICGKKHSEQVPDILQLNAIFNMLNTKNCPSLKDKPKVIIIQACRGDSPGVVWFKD
UniProt P29466, 317-404 limits assumed: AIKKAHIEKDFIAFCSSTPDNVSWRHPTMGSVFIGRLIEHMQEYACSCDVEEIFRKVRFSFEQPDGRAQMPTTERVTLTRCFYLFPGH

Biological target: human recombinant caspase-1 (Homo sapiens, UniProt P29466)
Details: read-out: Ki human recombinant caspase-1; cited from earlier work

CC(=O)N[C@@H](Cc1ccc(O)cc1)C(=O)N[C@H](C(=O)N[C@@H](C)C(=O)N[C@H](C=O)CC(=O)O)C(C)C
Ki: 0.2 nM
